miR-21 FLuc: miR-21 reporter, rising signal | HeLa miR-21 FLuc reporter, luciferase, 48 h | Potency, µM (top dose mostly 38.3 µM), inactives show at the highest dose reporter change, positive = more light | 340,000 tested, under 10 active | AID 2288; active = well fitted rising curve with a large enough effect; inconclusive = small, poorly fitted or top-dose-only effect; inactive = no such curve, though single readings can be large or run the other way;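 note: % of control where 0% means no effect; miR-21 action dims this reporter so a rising signal means less miR-21 action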
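Compounds were titrated across several concentrations (up to approximately 40 uM) and incubated 48 hours with HeLa miR-21-FLuc reporter cells (miR-21 target sequence downstream of FLuc, endogenous miR-21). Readout was firefly luciferase luminescence after lytic detection reagent.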
Nrf2 activator: activators of Nrf2 (ARE) signaling. AREc32 ARE-luciferase reporter (MCF7-derived line), luminescence, 24 h. Potency, µM (doses to about 46.1 µM), inactives show top-dose activation, usual class: activators. 0.31% of 410,000 active. AID 624171; also: potency is read from the fitted curve at half-maximal effect; % of control where 0% means no effect; nearly all actives have a fitted effect of over 65% in size
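ARE activation measured as luciferase luminescence (Steady-Glo, 30 min RT) in AREc32_Fluc cells after 24 hr compound exposure at 37 deg C, 5% CO2; cells seeded overnight at 1000/well in OPTI-MEM, 5% FBS.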
Mito fusion yeast: mitochondrial division inhibition or fusion activation; S. cerevisiae fusion-defective mutant growth rescue, CellTiterGlo 48 h; Potency, µM (titrated, usually from 46.1 µM), for inactives: at the top dose growth rescue (activation), usual class: activators; 0.23% of 320,000 active; AID 485298; also: potency is read from the fitted curve at half-maximal effect; % of control where 0% means no effect; nearly all actives have a fitted effect of over 45% in size
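Compounds are tested for their ability to restore growth of mitochondrial fusion-defective yeast strains at non-permissive 37C in YPEG medium over 48 hours. Viability is quantified by luciferase luminescence.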
Nrf2 block: Nrf2 pathway inhibition; 2.1% of 360,000 active; A549 ARE-Fluc reporter, luciferase luminescence, 18-24 h; Potency, µM (series often up to 46 µM), for inactives: top-dose activity change, negative = inhibition, usual class: inhibitors; AID 504444; also: potency is read from the fitted curve at half-maximal effect; % is scaled to controls: 0 for no effect and ±100 for the full control effect; nearly all actives have a fitted effect of over 60% in size
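Quantitative HTS in A549 cells stably bearing an antioxidant response element-firefly luciferase construct. Inhibition of Nrf2-driven transcription was scored by luminescence after 18-24 h of compound exposure at 37 °C.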
A549 tox: counter-screen for Nrf2 inhibitors: cytotoxicity in A549 cells. 0.16% of 390,000 active. A549 ARE-Fluc cells, CellTiter-Fluor viability, 18-24 h. AID 504648. Potency, µM (top dose mostly 46 µM), for the others: at the top dose activity change, negative = cytotoxicity, hits mostly inhibitors; also: potency is read from the fitted curve at half-maximal effect; % is scaled to controls: 0 for no effect and ±100 for the full control effect
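A549 ARE_Fluc cells in 5% FBS OPTI-MEM were exposed to compounds in concentration-response for 18-24 h at 37 deg C. Viability was read by CellTiter-Fluor fluorescence (Ex 405/Em 525) after 30 min, before the luciferase read.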
Starred values were filed as active, the others as inactive; ? = inconclusive; · = no result. Compounds with a hit are over-represented: about 2.3% of the library has one in this group of screens. Unless noted, calls follow the shape of the dose curve; as a rule, active = well fitted curve in the direction sought with a large enough effect; inconclusive = small, poorly fitted or top-dose-only effect, or another doubt; inactive = no such curve, though single readings can be large; an effect the other way counts as inactive or inconclusive.

SMILES | miR-21 FLuc | Nrf2 activator | Mito fusion yeast | Nrf2 block | A549 tox
CN1CCN(C(=O)CCN2C(=O)/C(=C\c3ccccc3F)SC2=S)CC1 | 24.1% | 17.0% | -2.4% | ? | 23.1µM*
O=C(CCCN1C(=O)S/C(=C\c2ccccc2)C1=O)NNC(=O)c1ccccc1O | ? | -3.0% | -6.9% | 13µM* | 1.8%
CC(/C=C1\SC(=O)N(CCCC(=O)O)C1=O)=C\c1ccccc1 | ? | -2.6% | 19.2% | 2.31µM* | -0.7%
O=C(CCN1C(=O)/C(=C\c2ccccc2F)SC1=S)N1CCOCC1 | · | 10.0% | · | · | ·
COc1ccc(Cl)cc1S(=O)(=O)N1CCN(S(=O)(=O)c2ccc3c(c2)OCCO3)CC1 | · | · | · | ? | -0.3%
O=C(CCCN1C(=O)/C(=C/c2ccccc2Cl)SC1=S)NNC(=O)c1ccccc1 | ? | 0.0% | 1.0% | 20.6µM* | -12.2%
O=C(CCCN1C(=O)/C(=C/c2ccccc2Cl)SC1=S)NNC(=O)c1cccnc1 | ? | 11.4% | -0.9% | ? | -11.6%
CCN(CCO)c1ccc(N=Nc2cc(C)[nH]n2)cc1 | 28.5% | -2.9% | -0.6% | ? | 9.2µM*
CCN(CCO)c1ccc(Nc2cc(-c3ccc(-c4ccccc4)cc3)ncn2)cc1 | · | 7.1% | · | · | ·
COc1ccc(-c2nc(-c3ccc4c(c3)OCO4)[nH]c2-c2ccc(OC)cc2)cc1 | 12.7% | 0.7% | ? | 25.9µM* | ?
CCCNS(=O)(=O)c1cccc(C(=O)NC2CCCc3ccccc32)c1 (stereo unspecified) | 0.6% | 2.1% | 1.2% | 16.4µM* | ?
CN(C)S(=O)(=O)c1cccc(C(=O)NC2CCCc3ccccc32)c1 (stereo unspecified) | -13.5% | 3.0% | -1.3% | 1.9% | -1.2%

The final 5 entries of the part above are carried over, then new ones follow.
SMILES | miR-21 FLuc | Nrf2 activator | Mito fusion yeast | Nrf2 block | A549 tox
CCN(CCO)c1ccc(N=Nc2cc(C)[nH]n2)cc1 | 28.5% | -2.9% | -0.6% | ? | 9.2µM*
CCN(CCO)c1ccc(Nc2cc(-c3ccc(-c4ccccc4)cc3)ncn2)cc1 | · | 7.1% | · | · | ·
COc1ccc(-c2nc(-c3ccc4c(c3)OCO4)[nH]c2-c2ccc(OC)cc2)cc1 | 12.7% | 0.7% | ? | 25.9µM* | ?
CCCNS(=O)(=O)c1cccc(C(=O)NC2CCCc3ccccc32)c1 (stereo unspecified) | 0.6% | 2.1% | 1.2% | 16.4µM* | ?
CN(C)S(=O)(=O)c1cccc(C(=O)NC2CCCc3ccccc32)c1 (stereo unspecified) | -13.5% | 3.0% | -1.3% | 1.9% | -1.2%
CCOc1ccc(CNC(=O)C2CCN(S(=O)(=O)c3cn(C)cn3)CC2)cc1OC | 0.1% | -0.5% | · | · | 3.9%
CCC1CN(C(=O)N2CCC(C(=O)NCCc3cc(OC)ccc3OC)CC2)c2ccccc2O1 (stereo unspecified) | 20.9% | -0.3% | · | 23.1µM* | -8.2%
O=C(Cc1cccc([N+](=O)[O-])c1)NCc1nc2cccnc2n1Cc1ccc(F)cc1 | 0.1% | 0.5% | · | · | 4.2%
CCCCCCOc1ccc(/C=C/C(=O)Nc2sc3c(c2C(=O)OC)CCC3)cc1OC | -4.4% | -5.5% | · | 1.5% | 1.8%
O=C(CCC1CCCC1)N1CCc2c([nH]c3ccccc23)C1c1ccc(Cl)cc1 (stereo unspecified) | -0.5% | 4.9% | · | · | 7.6%
COc1ccc(-c2nnc(NC(=O)c3ccc(S(=O)(=O)N4COCC4(C)C)cc3)o2)cc1 | 27.4% | -0.1% | -0.9% | 18.4µM* | -20.8%
CC(=O)OC1(C(C)=O)CCC2C3CC(C(F)(F)F)C4=CC(=O)CCC4(C)C3CCC21C (stereo unspecified) | · | 7.08µM* | · | -14.1% | -6.0%
CC1CC2C3CCC4=CC(=O)CCC4(C)C3CCC2(C)C1(O)C(=O)CO (stereo unspecified) | · | 4.3% | · | 0.651µM* | -4.5%
CC(=O)O[C@]1(C(C)=O)CC[C@H]2[C@@H]3C[C@H](C)C4=CC(=O)CC[C@]4(C)[C@H]3CC[C@@]21C | 15.1% | 1.1% | 10.3% | 0.259µM* | -14.5%
CC(=O)C12CCCCC1CC1[C@@H]3CC(C)C4=CC(=O)CC[C@]4(C)C3CC[C@@]12C (stereo partly specified) | -4.7% | -0.4% | 0.3% | ? | 11.9%
CC(=O)O[C@]1(C(C)=O)CC[C@H]2[C@@H]3C=C(Cl)C4=CC(=O)CC[C@]4(C)[C@H]3CC[C@@]21C | -1.1% | 11.0% | ? | ? | 1.2%
CCC(=O)OC1(C(C)=O)CCC2C3CCC4=CC(=O)CCC4(C)C3CCC21C (stereo unspecified) | · | 5.7% | · | 1.16µM* | 5.6%
O=C(NCCCN1CCN(c2ccc(F)cc2)CC1)c1sc2ncccc2c1-n1cccc1 | 5.7% | 4.4% | · | · | -3.8%
COc1ccc(S(=O)(=O)n2nc(-c3ccco3)nc2NCc2ccc(OC)c(OC)c2)cc1 | -9.9% | 5.3% | · | 0.1% | -4.3%
Cc1ccn2c(NCc3ccco3)c(-c3ccccc3)nc2c1 | · | · | · | ? | -1.0%
Cc1ccc(CN2C(=O)C(Cc3ccccc3)Nc3ncnc(N4CCN(c5ccccc5)CC4)c32)cc1 (stereo unspecified) | · | 3.6% | 11.2µM* | -15.5% | -4.6%
CC(C)(C)OC(=O)NCc1nnc(C(C(=O)OCc2ccccc2)c2ccccc2)s1 (stereo unspecified) | · | · | · | 15.6% | -4.2%
O=C(NCC(c1cccnc1)N1CCc2ccccc21)c1cccc(Br)c1 (stereo unspecified) | 25.9% | -2.7% | · | 16.4µM* | -0.3%
O=C(NCC(c1cccs1)N1CCc2ccccc21)c1ccccc1 (stereo unspecified) | · | -0.6% | ? | -9.2% | -10.4%
COc1cccc(C(=O)NCC(c2cccs2)N2CCc3ccccc32)c1 (stereo unspecified) | · | 3.1% | 15.8µM* | ? | ?
Cc1ccccc1C(=O)NC1(C(F)(F)F)N=C(c2ccccc2)N(Cc2ccccc2)C1=O (stereo unspecified) | 1.9% | 0.4% | · | 6.3% | 11.3%
CC1CCN(C(=S)NCCc2ccccc2)CC1 | -60.2% | 0.7% | 3.0% | · | -4.0%
OC(c1ccccc1)(c1ccccc1)C1CCN(C(=S)NCCc2ccccc2)CC1 | 17.9% | 0.0% | 0.2% | 23.1µM* | ?
COC(=O)c1ccc(CSc2nc3ccccc3[nH]2)o1 | -39.9% | 0.4% | -1.4% | -8.9% | -2.9%
COCC(C)n1c(SCc2cc(C(=O)OC)c(C)o2)nc2ccccc2c1=O (stereo unspecified) | 13.3% | -0.6% | 8.3% | ? | 8.1%
COC(=O)c1cc(CSc2nnc(-c3ccccc3)c(-c3ccccc3)n2)oc1C | 8.4% | 1.6% | -4.7% | 20.6µM* | -13.5%
COC(=O)c1cc(CSc2nc3ccc(C)cc3[nH]2)oc1C | -1.4% | 2.1% | 6.3% | 20.6µM* | -2.7%
COc1ccc(OC)c(-c2nnc3n2N=C(c2ccccc2OC)CS3)c1 | · | · | · | -6.0% | -2.2%
Cc1ccc(-c2nc3ccccc3[nH]2)cc1NC(=S)NC(=O)c1ccccc1Br | -13.3% | 2.2% | 4.2% | 18.4µM* | ?
O=C1C=CC(=C(c2ccc(O)cc2)c2ccc(O)cc2)C=C1 | · | -3.0% | 0.5% | 13µM* | 23.1µM*
Cc1ccccc1CNC(=O)Cn1ncn2nc(-c3cccs3)cc2c1=O | -9.9% | 1.7% | · | -13.9% | 1.0%
CC(C)(C)OC(=O)Cc1nnc(C(C(=O)OCc2ccccc2)c2ccccc2)s1 (stereo unspecified) | · | · | · | 7.6% | 1.8%
O=C(CCS(=O)(=O)c1ccc(Br)s1)Nc1cc(C(F)(F)F)cc(C(F)(F)F)c1 | 8.8% | -3.1% | · | 23.1µM* | ?
CC(=O)c1cccc(NC(=O)CCS(=O)(=O)c2ccc(Br)s2)c1 | -4.4% | 4.2% | -7.5% | -1.2% | -1.7%

From PubChem BioAssay
